Data from publication PMC8429736, “Pharmacological characterization of mutant huntingtin aggregate-directed PET imaging tracer candidates” (Scientific Reports, 2021).
Read-outs that look alike come from different tables or passages of the source.

By UniProt entry, the sequences of proteins in these tests, tags left out. Chains listed by the source or under a name are the forms on record and can include a tag or linker. Residues count along the entry.
UniProt P42858, 1-87 with tags or gaps with the stated changes limits assumed: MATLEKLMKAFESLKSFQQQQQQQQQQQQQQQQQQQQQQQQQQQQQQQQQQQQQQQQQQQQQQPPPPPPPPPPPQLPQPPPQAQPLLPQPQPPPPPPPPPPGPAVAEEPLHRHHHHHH
UniProt P05067, 672-713 limits assumed: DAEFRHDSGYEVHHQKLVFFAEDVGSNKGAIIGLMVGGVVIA
UniProt P10636, 623-695 limits assumed: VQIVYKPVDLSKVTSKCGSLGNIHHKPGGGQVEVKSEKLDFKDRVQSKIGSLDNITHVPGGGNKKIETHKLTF

Tests used:
[1] = biological target: Q46 aggregates; assay: RBA competition binding against tritiated 3, Q46 aggregates; settings: read-out: IC50 Q46, 0.3 nM tritiated 3 as radioligand, 1 µM aggregates, mean ± SD
[2] = biological target: Q46 aggregates; assay: RBA saturation binding, Q46 aggregates; settings: read-out: Kd Q46
[3] = biological target: T1, Exon1-Q46 aggregates (Homo sapiens, UniProt P42858, INS38QQQQQQQQQQQQQQQQQQQQQQQQQ); assay: RBA competition binding against tritiated 3, Exon1-Q46 aggregates; settings: read-out: IC50 Exon1-Q46, 0.3 nM tritiated 3 as radioligand, 1 µM aggregates, mean ± SD
[4] = biological target: T1, Exon1-Q46 aggregates; assay: RBA saturation binding, recombinant Exon1-Q46 aggregates; settings: read-out: Kd Exon1-Q46; tritiated compound; mean ± SD; tested as the radiolabelled form
[5] = biological target: beta amyloid plaques in human AD brain sections (Homo sapiens, UniProt P05067); assay: ARG, human post-mortem AD frontal cortex sections; type: binding; settings: tested as the radiolabelled form
[6] = system: mHTT aggregates in human HD brain sections; assay: ARG, human post-mortem HD frontal cortex sections; settings: 1 nM radioligand; gray matter; tested as the radiolabelled form
[7] = biological target: beta amyloid plaques (6E10 antibody) (Homo sapiens, UniProt P05067); assay: HR ARG co-registration with 6E10 antibody, human AD brain sections; type: binding; settings: 10 nM CHDI-180, 10 nM CHDI-626, 0.1 nM PiB, 1 nM T808; tested as the radiolabelled form
[8] = system: mHTT aggregates in R6/2 mice brain sections; assay: In vitro ARG, R6/2 mouse brain sections; settings: 4-, 8- and 12-week-old R6/2 mice; tested as the radiolabelled form
[9] = biological target: phospho-Tau tangles (AT8 antibody) (Homo sapiens, UniProt P10636); assay: HR ARG co-registration with AT8 antibody, human AD brain sections; settings: 10 nM CHDI-180, 10 nM CHDI-626, 0.1 nM PiB, 1 nM T808; tested as the radiolabelled form
[10] = tested as the radiolabelled form; cited from earlier work
[11] = ARG, human post-mortem CTRL frontal cortex sections; settings: 1 nM radioligand; gray matter; tested as the radiolabelled form
[12] = system: beta amyloid/tau aggregates in post-mortem AD patient brain homogenates; assay: ADbh RBA competition format; settings: tested as the radiolabelled form
[13] = system: beta amyloid/tau aggregates in post-mortem AD patient brain homogenates; assay: ADbh RBA saturation (direct) binding; settings: 100 µg homogenate per well, tested as the radiolabelled form
[14] = tested as the radiolabelled form
[15] = tritiated compound, mean ± SD, tested as the radiolabelled form

Row | SMILES | IC50 [1, 14] [nM] | Kd [2, 15] [nM] | IC50 [3, 14] [nM] | Kd [4] [nM] | co-registration with 6E10-positive beta amyloid plaques [7] | co-registration with AT8-positive phospho-Tau immunoreactivity [9] | further results
1 | COc1ccc(COc2ccc3oc(-c4cnccn4)nc3c2)nc1 | 1.8 | 4.7 | 1.2 | 2.5 | – | – | –
2 | COc1ccc(NC(=O)c2ccn3c(n2)nc2ccccc23)cn1 | 3.6 | 5.8 | 2.9 | 4.5 | no co-registration | no co-registration | binding in AD post-mortem brain tissues ([5]; 1 nM radioligand): 0.8 ± 0.6 fmol/mg; binding to frontal cortical sections from HD donors [6]: 2.5 ± 1.0 fmol/mg tissue; specific binding to STR, CTX and HPC with age [8]: age-dependent increase in specific binding; plasma, microsomal, and hepatocyte stability [10]: acceptable; binding to frontal cortical sections, CTRL tissue [11]: 0.5 ± 0.7 fmol/mg tissue
3 | COc1ccc2c(c1)sc1nc(C(=O)Nc3ccc(OC)nc3)cn12 | 0.7 | 7.8 | 0.4 | 5.5 | co-registration with 6E10 | not AT8 | specific binding to human AD brain by ARG ([5]; 4 at 0.3 nM): specific binding to human AD brain was confirmed; displacement of 4 at 0.1 µM ([12]; radioligand 4, compound 0.1 µM): fully displace; IC50 ([12]; read-out: IC50, AD brain homogenate, against 0.5 nM radiolabeled 4): 2.5 nM; Bmax, AD brain homogenate [13]: 3.7 pmol/mg; Kd ([13]; read-out: Kd, AD brain homogenate): 3 nM
4 | COc1ccc2cc(C(C)=C(C#N)C#N)ccc2c1 | – | – | – | – | – | – | IC50 [1]: 10.3 nM; Kd ([2]; higher protein concentrations (10–30 µM) applied): 140 nM; IC50 [3]: 9.9 nM
5 | COc1ccc2c(c1)sc1nc(C(=O)Nc3cccnc3)cn12 | 4.7 | 8.7 | 5.8 | 5.2 | – | – | –
